Drawing on US5607937A, “Piperazides of substituted phenylalanine derivatives as thrombin inhibitors” (priority 1993, dated 1997), this text covers Ki for 1 compound.

Structures are written as SMILES.

A word on the Ki: it is a measure of affinity in units of concentration, obtained from inhibition or displacement.

The test addresses thrombin (Bos taurus, UniProt P00735). The following applies: read-out: Ki, Thrombin.

As to `N=C(N)c1cccc(CC(NS(=O)(=O)c2ccc3ccccc3c2)C(=O)N2CCN(C(=O)C3CCCCC3)CC2)c1` (stereo not shown) [AMD 2-Naph CO-cHex], the Ki came to 36 µM.
